In patent US20260242372A1, “NOVEL IMIDAZOPYRIDINE AND PYRAZOLOPYRIDINE SULFONAMIDE DERIVATIVES” (Hoffmann-La Roche Inc., priority 2022, published 2026) one finds IC50 data, which are given here for one compound.

Sequences of proteins named here, by UniProt entry; tags and fusion partners are left off. Residues count along the entry.
UniProt Q13304, 29-367: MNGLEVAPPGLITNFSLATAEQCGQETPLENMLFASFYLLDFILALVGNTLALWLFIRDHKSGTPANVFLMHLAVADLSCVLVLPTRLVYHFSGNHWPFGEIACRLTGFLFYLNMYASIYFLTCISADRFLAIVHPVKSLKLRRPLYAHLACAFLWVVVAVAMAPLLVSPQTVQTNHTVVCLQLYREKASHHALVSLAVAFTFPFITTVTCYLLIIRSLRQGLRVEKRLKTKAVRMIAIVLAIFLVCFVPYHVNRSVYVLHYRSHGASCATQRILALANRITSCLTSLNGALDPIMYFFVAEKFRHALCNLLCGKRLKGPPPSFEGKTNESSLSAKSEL

One may read the IC50 as the concentration that inhibits the measured activity by half.

This test deals with human GPR17 short isoform (Homo sapiens, UniProt Q13304). The test can be described thus: GPR17 cAMP assay (hGPR17 cAMP, TR-FRET, antagonist mode). Particulars: read-out: hGPR17 cAMP IC50; CHO-K1 cells stably expressing human GPR17 short isoform; EC80 of agonist MDL29,951; forskolin 15 μM; 30 min at room temperature. The format is cell-based. On the technique in general: Cyclic AMP is a second messenger, typically raised through Gs and lowered through Gi signalling.

As to `COc1nc(OCC(F)F)c(F)cc1NS(=O)(=O)c1cnc2cc(C3(O)COC3)ccn12`, the IC50 turned out to be 101 nM.
